Data from patent US20160151408A1, “NOVEL THERAPY FOR MULTIPLE SCLEROSIS USING VITAMIN D AND GUT BACTERIA” (California Institute of Technology, priority 2012, published 2016).

Assay: Serum 1,25D levels in germ-free mice
Conditions: GF mice fed 50 μg PSA 3× per week for 2 weeks, oral

## polysaccharide A [PSA]
  serum levels of 1,25D: increases serum levels of 1,25D
